For this experiment, the target named is cAMP-dependent protein kinase type I-alpha regulatory subunit (Bos taurus) (UniProt P00514). Put plainly: activators of PKA-R1A holoenzyme, confirmation, biochemical, fluorescence polarization, Cy5-IP20, triplicate (AID 504800).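 Also: 0% = holoenzyme mix with DMSO only and 100% = cGMP-activated control wells.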 The settings on record: PKA-R1A holoenzyme dissociation, at 11.4 µM, active compounds read high. On the technique in general: Fluorescence polarisation rises when a labelled molecule tumbles more slowly, as on binding a larger partner.

The list shows a part of the results, in another mix than the full data. Activity calls are given as the source filed them.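 The calls were made as follows: active = mean activation over replicate wells exceeds the adjusted hit threshold taken from the earlier primary screen (cut at about 20% in these data); inactive = the rest.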

As for `CC(C)c1ccc(OP(=O)(Nc2ccccn2)Oc2ccccc2F)cc1` (stereo unspecified), the activation is inactive: -1.33%.
